# According to PubChem BioAssay AID504775 (Broad Institute, 2011):
# Only a part is listed here, and it is no random draw. The source made the active and inactive calls.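 The calls were made as follows: active = mean replicate activation of at least 60% and every replicate at or above 60%; inconclusive = mean or all-replicate condition met, but not both; inactive = mean below 60% and not all replicates reaching 60%.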
# Experiment: enhancers of HDL lipid transfer via mSR-BI – ldlA[mSR-BI] CHO cells, DiI fluorescence, primary screen (AID 504775);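 also: 0% = median plate neutral-control signal and 100% = twice that signal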
# Conditions: DiI-HDL uptake fluorescence, 3 h, at 12.5 µM, active compounds read high, 100 = double the neutral-control signal
# How it was run: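 Material – SR-BI-overexpressing, LDLR-lacking CHO cells · Medium – BSA-supplemented, HEPES-buffered Ham's F12, pH 7.4 · Doses – single concentration · Times – compound with DiI-HDL co-incubation, 3 h at 37 °C · Measured by – bottom-read fluorescence, 550/595 nm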
row,Compound,activation
1,COc1cc(C(=O)NCC2(N3CCOCC3)CCCCC2)cc(OC)c1C,inactive: -32.2%
2,O=C(NCC1(N2CCOCC2)CCCCC1)c1cc(Br)ccc1Cl,inactive: -6.52%
3,COc1ccc(C(=O)NCC2(N3CCOCC3)CCCCC2)cc1OC,inactive: 16.9%
4,CCOC(=O)N1CCC(Nc2ccc(C)cc2)CC1,inactive: 10.4%
5,N/C(=N\O)c1c(N)no[n+]1[O-],inactive: 9.99%
6,O=C(OC1CN2CCC1CC2)C1c2ccccc2C=Cc2ccccc21 (stereo not given),inactive: 18.3%
7,N#Cc1ccc(C(=O)NCC2(N3CCCCC3)CCCCC2)cc1,inactive: 11.9%
8,CC(C)(C)OC(=O)N1CCC(N(C(=O)c2ccccc2)c2ccc(Cl)cc2)CC1,inactive: -2.77%
9,CN(C)C1(CNC(=O)c2cccc(C#N)c2)CCCCC1,inactive: 9.98%
10,Cc1cc(N(CCCl)CCCl)ccc1C=O,inactive: -28.3%
11,CCCN1CCC(Nc2cc(OC)cc(OC)c2)CC1,inactive: 14.7%
12,c1ccc(CN2CCC(Nc3ccccc3)CC2)cc1,inactive: -23.8%
13,CC(=O)N(c1ccccc1)C1CCNCC1,inactive: 14.8%
14,Fc1ccccc1NC1CCN(Cc2ccccc2)CC1,inactive: 3.95%
15,Cc1ccc(C(=O)NCC2(N3CCCCC3)CCCCC2)o1,inactive: 19.5%
16,Cc1ccc(NC2(C#N)CCN(Cc3ccccc3)CC2)cc1,inactive: 3.93%
17,CCN1CCC(Nc2cccc(F)c2)CC1,inactive: -8.36%
18,Cc1ccccc1NC1(C#N)CCN(Cc2ccccc2)CC1,inactive: 19.1%
19,CN(C)c1ccc(C(=O)NCC2(N3CCCCC3)CCCCC2)cc1,inactive: 2.96%
20,Cn1c(=O)[nH]cc(N(CCCl)CCCl)c1=O,inactive: 6.11%
21,O=C(NCC1(N2CCCCC2)CCCCC1)c1ccco1,inactive: 36.9%
22,CN1CCC(Nc2ccc(F)c(Cl)c2)CC1,inactive: 27.9%
23,CCOc1ncccc1C(=O)NCC1(N2CCOCC2)CCCCC1,inactive: 0.98%
24,O=C(O)C1(Nc2ccccc2)CCN(Cc2ccccc2)CC1,inactive: 20.1%

row,Compound,activation
1,CC(C)(C)OC(=O)N1CCC(Nc2ccccc2)CC1,inactive: -1.28%
2,CCCOc1ccc(C(=O)NCC2(N(C)C)CCCCC2)cc1,inactive: -8.44%
3,COc1cc(OC)cc(C(=O)NCC2(N3CCOCC3)CCCCC2)c1,inactive: -6.24%
4,COc1cccc(C(=O)N(c2cc(C)cc(C)c2)C2CCN(C(=O)OC(C)(C)C)CC2)c1,inactive: -3.24%
5,CN1CCC(Nc2ccc(Cl)cc2)CC1,inactive: 11.6%
6,COc1ccc(C(=O)NCC2(N3CCCCC3)CCCCC2)c(OC)c1OC,inactive: -0.242%
7,COc1ccc(C(=O)NCC2(N3CCCCC3)CCCCC2)cc1,inactive: 7.64%
8,O=C(NCC1(N2CCCCC2)CCCCC1)c1cccs1,inactive: 6.53%
9,O=C(NCC1(N2CCCCC2)CCCCC1)c1ccc(=O)[nH]c1,inactive: 6.22%
10,Cc1cccc(NC2(C#N)CCN(Cc3ccccc3)CC2)c1,inactive: 12.1%
11,CSc1ccccc1C(=O)NCC1(N2CCCCC2)CCCCC1,inactive: 19.6%
12,Cc1cc(C)cc(N(C(=O)c2ccccc2)C2CCN(C(=O)OC(C)(C)C)CC2)c1,inactive: 15.4%
13,O=C(NCC1(N2CCCCC2)CCCCC1)c1ccc(Cl)nc1,inactive: 37.6%
14,O=C(NCC1(N2CCOCC2)CCCCC1)c1cc2ccccc2o1,inactive: -4.25%
15,COc1ccc(Cl)cc1C(=O)NCC1(N2CCOCC2)CCCCC1,inactive: 4.26%
16,O=C(NCC1(N2CCCCC2)CCCCC1)c1ccc(Cl)s1,inactive: 2.36%
17,N#CC1(Nc2ccccc2)CCN(Cc2ccccc2)CC1,inactive: 17.3%
18,O=C(OC1CN2CCC1CC2)C1c2ccccc2Oc2ccccc21 (stereo not given),inactive: -10.7%
19,CCOC(=O)N1CCC(Nc2ccc(OC)cc2)CC1,inactive: 21.6%
20,O=C1CCN(Cc2ccccc2)CC1,inactive: 15.3%
21,CCOc1ccc(C)cc1CN(CCCl)CCCl,inactive: -28.1%
22,COc1ccc(NC2CCN(CCc3ccccc3)CC2)c(OC)c1,inactive: 30.1%
23,CCOC(=O)N1CCC(Nc2ccc(F)cc2)CC1,inactive: 21.9%
24,O=P1(N(CCCl)CCCl)SCCCS1,inactive: 0.261%

row,Compound,activation
1,CCCCOc1ccc(C(=O)NCC2(N3CCOCC3)CCCCC2)cc1,inactive: -15.7%
2,O=C(NCC1(N2CCCCC2)CCCCC1)c1ccc(F)cc1,inactive: 26.5%
3,CCOC(=O)N1CCC(Nc2cccc(C)c2)CC1,inactive: -42.5%
4,COc1cc(C(=O)NCC2(N(C)C)CCCCC2)ccc1OC(F)F,inactive: -4.36%
5,O=C(NCC1(N2CCCCC2)CCCCC1)c1ccc(OC(F)F)cc1,inactive: 2.04%
6,N#CC1(Nc2ccccc2)CCN(CCc2ccccc2)CC1,inactive: 16.7%
7,CCN1CCC(Nc2ccc(Cl)cc2)CC1,inactive: 7.54%
8,O=C(NCC1(N2CCCCC2)CCCCC1)c1cccc([N+](=O)[O-])c1,inactive: 13.3%
9,CSc1ccc(C(=O)NCC2(N3CCOCC3)CCCCC2)cc1,inactive: -5.18%
10,COc1cc(C(=O)NCC2(N3CCCCC3)CCCCC2)ccc1OC(F)F,inactive: 1.86%
11,O=C(NCC1(N2CCOCC2)CCCCC1)c1cc(=O)[nH]c2ccccc12,inactive: -2.58%
12,CN1CCN(CCOC(=O)C(O)(c2ccccc2)c2ccccc2)CC1,inactive: 19.8%
13,CC(C)c1ccc(C(=O)NCC2(N3CCOCC3)CCCCC2)cc1,inactive: -4.72%
14,COc1ccc(NC2CCN(C(=O)OC(C)(C)C)CC2)cc1,inactive: -20.9%
15,CC(C)c1ccc(NC2CCN(C(=O)OC(C)(C)C)CC2)cc1,inactive: -4.39%
16,CN(C)c1cccc(C(=O)NCC2(N3CCCCC3)CCCCC2)c1,inactive: 24.1%
17,COc1ccc(CN(CCCl)CCCl)cc1Cl,inactive: 10.1%
18,O=C(NCC1(N2CCOCC2)CCCCC1)c1cc(F)c(F)cc1Cl,inactive: -17.2%
19,COc1cc(OC)c(C(=O)NCC2(N(C)C)CCCCC2)cc1OC,inactive: 20.8%
20,CN1CCC(Nc2cccc(F)c2)CC1,inactive: 14.2%
21,O=C(NCC1(N2CCCCC2)CCCCC1)c1cncc(Br)c1,inactive: -15.9%
22,CCCOc1ccc(C(=O)NCC2(N(C)C)CCCCC2)cc1OC,inactive: -7.26%
